# Measured values: patent US10434101B2, “Heterocyclic compounds and uses thereof” (Celgene CAR LLC, priority 2010, dated 2019)
# Key:
# EGFR T790M/L858R [1] = target: T1, EGFR T790M/L858R (Homo sapiens (Human), UniProt P00533, L858R/T790M); details: 10-fold excess of compound to protein
# EGFR T790M/L858R [2] = target: T1, EGFR T790M/L858R; assay: Omnia assay, potency against EGFR (T790M/L858R) active enzyme; type: biochemical
SMILES,covalent modification of EGFR T790M/L858R by whole protein MS (EGFR T790M/L858R [1]),further results
"C=CC(=O)Nc1cccc(Oc2nc(Nc3ccc(N4CCOCC4)cc3OC)ncc2C(F)(F)F)c1 [Compound I-1, N-(3-(2-(2-methoxy-4-morpholinophenylamino)-5-(trifluoromethyl)pyrimidin-4-yloxy)phenyl)acrylamide]",covalently modify the protein,–
"C=CC(=O)Nc1cccc(Oc2nc(Nc3ccc(N4CCN(C(=O)CO)CC4)cc3OC)ncc2Cl)c1 [Compound I-3, N-(3-(5-chloro-2-(4-(4-(2-hydroxyacetyl)piperazin-1-yl)-2-methoxyphenylamino)pyrimidin-4-yloxy)phenyl)acrylamide]",covalently modify the protein,–
"C=CC(=O)Nc1cccc(Oc2nc(Nc3ccc(N4CCN(C(C)=O)CC4)cc3OC)ncc2C(F)(F)F)c1 [Compound I-10, N-(3-(2-(4-(4-acetylpiperazin-1-yl)-2-methoxyphenylamino)-5-(trifluoromethyl)pyrimidin-4-yloxy)phenyl)acrylamide]",–,Ratio WT/mutant (EGFR T790M/L858R [2]): >1
"C=CC(=O)Nc1cccc(Nc2nc(Nc3ccc(N4CCOCC4)cc3OC)ncc2Cl)c1 [Compound I-15, N-(3-(5-chloro-2-(2-methoxy-4-morpholinophenylamino)pyrimidin-4-ylamino)phenyl)acrylamide]",–,"IC50 (EGFR T790M/L858R [2]; [EGFR-T790M/L858R]=2.5 nM, [ATP]=20 uM, 30 min pre-incubation): 1 to 10 nM"
